## scFv variants of Ab-14 (heavy chain) against a SARS-CoV-2 spike peptide

The measurements come from Engelhart et al. 2022 (doi:10.1038/s41597-022-01779-4) through the FLAb antibody collection.

Target: peptide PDVDLGDISGINAS, taken from heptad repeat 2 (HR2) of SARS-CoV-2 spike.

The variants keep the light chain, the linker and the frameworks of Ab-14 (scFv order VH, three GGGGS repeats, VL).
VH: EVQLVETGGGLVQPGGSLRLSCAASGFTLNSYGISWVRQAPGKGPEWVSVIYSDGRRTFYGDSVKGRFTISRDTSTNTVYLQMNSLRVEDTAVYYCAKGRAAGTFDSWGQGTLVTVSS
VL: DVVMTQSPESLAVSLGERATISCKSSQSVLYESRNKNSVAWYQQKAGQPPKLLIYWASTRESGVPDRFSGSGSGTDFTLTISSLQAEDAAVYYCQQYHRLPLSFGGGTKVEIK

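The starting antibody came from a phage panning campaign against this peptide. Library AAYL49 holds single substitutions and randomly drawn double and triple substitutions in the CDRs. The scFvs were displayed on barcoded MATa yeast, the peptide on MATalpha yeast. Binding brings cells together so that they mate, and sequencing counts the barcode pairs among the diploids. Read counts were normalised to the haploid input and turned into Kd by a linear fit to BCL2-family pairs of known affinity, for each replicate. Each pool was mated in three replicate cultures.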

Variants are written as CDR1, CDR2 and CDR3 of the heavy chain (limits as in the source). Parent: GFTLNSYGIS, VIYSDGRRTFYGDSVK, GRAAGTFDS. Values are apparent Kd, the geometric mean of the replicates that gave a signal; lower means stronger binding. A pair that was not seen in any replicate is written "nd"; this usually means weak binding, but a binder can also be missed. As a blank, each scFv also met three strains without target: over library AAYL49, 15% of these pairings were detected, typically at 11 µM and seldom below 680 nM. For each scFv, signals with the empty controls are counted beside the result.

The variant GFTLPSYGIS / VIYSDGRRTFGGDSVS / GRAAGTFDS gave nd (0 of 3 replicates; controls 0 of 9).
The variant GFTLNSYAIS / VIYSDGRQTFYNDSVK / GRAAGTFDS gave nd (0 of 3 replicates; controls 1 of 9).
The variant GFTLNSYGIS / VIYSEGRRTFYGDSVK / GRPHGTFDS gave 14 µM (1 of 3 replicates; controls 2 of 9).
The variant GFTGNSYGIS / VNYSDGRRTLYGDSVK / GRAAGTFDS gave nd (0 of 3 replicates; controls 1 of 9).
The variant GHTLNSYGIS / VIYGDGRRTFYYDSVK / GRAAGTFDS gave 16 µM (2 of 3 replicates; controls 3 of 9).
The variant GFTLNSYGIS / VLYSDGRRTFYGDSVK / GRAAGTFDW gave 61 nM (1 of 3 replicates; controls 0 of 9).
The variant GFQLNSYGIS / IIYSDGRRTFYGDVVK / GRAAGTFDS gave nd (0 of 3 replicates; controls 0 of 9).
The variant GFTLNSYGIS / RIYSDGCRTFYGDSTK / GRAAGTFDS gave nd (0 of 3 replicates; controls 2 of 9).
The variant GFTLNSYGIS / VIYSDDRRTFYMDSVK / GRAAGTFDS gave nd (0 of 3 replicates; controls 0 of 9).
The variant GITLNSYGIS / VIYSDGRRTFWGDSNK / GRAAGTFDS gave 42 µM (1 of 3 replicates; controls 2 of 9).
The variant GGTLNSYGIS / LIYSDGRRTFYGDSVK / GRAAGTFDS gave 1.0 µM (2 of 3 replicates; controls 3 of 9).
The variant GFTLNSYGRS / VIYEDGRRTSYGDSVK / GRAAGTFDS gave 5.7 µM (2 of 3 replicates; controls 3 of 9).
The variant CKTLNSYGIS / VIYSDGRRTFYGDSVK / GRFAGTFDS gave 1.9 µM (3 of 3 replicates; controls 2 of 9).
The variant GFHLNSYGIS / VIYSDHRRTFYGDSVE / GRAAGTFDS gave nd (0 of 3 replicates; controls 0 of 9).
The variant GFPLNSYGIS / VIYSDPRRTFYGDSVK / GRTAGTFDS gave 320 nM (3 of 3 replicates; controls 1 of 9).
The variant TFTLNSYGIS / VIYSDGRRTFYGDSSK / GRAAGEFDS gave nd (0 of 3 replicates; controls 3 of 9).
The variant GFTLSSYGIP / VIYSDGRRTLYGDSVK / GRAAGTFDS gave nd (0 of 3 replicates; controls 0 of 9).
The variant GFTLRSYGIK / VIYSDGRRTFYGDSVP / GRAAGTFDS gave 1.6 µM (1 of 3 replicates; controls 1 of 9).
The variant GFTLNSYGIS / VIYSDGRRTFYKDSVK / GRACGTFDS gave nd (0 of 3 replicates; controls 0 of 9).
The variant GFTLNSYGIF / VIYSFGRRTFYGDSVK / GRAACTFDS gave nd (0 of 3 replicates; controls 0 of 9).
The variant GAPLMSYGIS / VIYSDGRRTFYGDSVK / GRAAGTFDS gave 1.7 µM (3 of 3 replicates; controls 4 of 9).
The variant GFTLNSYGIS / VIYSEGRITFYGSSVK / GRAAGTFDS gave nd (0 of 3 replicates; controls 1 of 9).
The variant GFTLNSYGIS / VIYSDGRRTFYGDSVK / GPALGTFDS gave 14 µM (1 of 3 replicates; controls 1 of 9).

Second part, the sequence after the result:

Result 2.1 µM (2 of 3 replicates; controls 2 of 9), variant GFLLNSYGIS / VIYSDGRRTFYGDSVT / GIAAGTFDS.
Result nd (0 of 3 replicates; controls 1 of 9), variant GLTLNSYGIS / VIYSWGRRTFYGDSVM / GRAAGTFDS.
Result nd (0 of 3 replicates; controls 0 of 9), variant GFTMNSLGIS / VIYSFGRRTFYGDSVK / GRAAGTFDS.
Result 630 nM (3 of 3 replicates; controls 1 of 9), variant GETLPSYGIS / VIYYDGRRTFYGDSVK / GRAAGTFDS.
Result 240 nM (3 of 3 replicates; controls 2 of 9), variant GFTLNSYGIS / VIYSDGRRTVYGDSVK / GRQAGTFQS.
Result 4.0 µM (1 of 3 replicates; controls 0 of 9), variant GQTLNSYGIS / VIYSDGRRTFYGTSVK / GRAFGTFDS.
Result 65 nM (1 of 3 replicates; controls 1 of 9), variant GFTPNSYGIS / VIYSDGRRTFYCDSVK / GRAAGHFDS.
Result nd (0 of 3 replicates; controls 3 of 9), variant GFIGNSYGIS / VIYSDGRRTFYKDSVK / GRAAGTFDS.
Result 530 nM (1 of 3 replicates; controls 0 of 9), variant GFTLNSYGIS / VIYSDGRRTFYGLSVK / GRAAGTMDS.
Result nd (0 of 3 replicates; controls 0 of 9), variant HFTLNSYGIS / VIYSDGRRTFYGDSVK / GIAAGTNDS.
Result 500 nM (3 of 3 replicates; controls 2 of 9), variant GFTANSYGIS / VIYGDGRRTFYVDSVK / GRAAGTFDS.
Result 210 nM (3 of 3 replicates; controls 2 of 9), variant GCTLNSYGIS / VIASDGRRTFYGDSVK / GSAAGTFDS.
Result 120 µM (1 of 3 replicates; controls 0 of 9), variant GFTLNSYGIS / VIYSDGRRTFYGDCVK / KRAAGTFDR.
Result nd (0 of 3 replicates; controls 0 of 9), variant GFTLNLYGIS / VIYSDGRRTWHGDSVK / GRAAGTFDS.
Result 5.5 µM (1 of 3 replicates; controls 2 of 9), variant GFTLNSYGIS / AIYSDGRHTFYGDSVK / GRAAGTFFS.
Result nd (0 of 3 replicates; controls 0 of 9), variant GLTLNSYGIS / VIYMDGRRVFYGDSVK / GRAAGTFDS.
Result 160 nM (3 of 3 replicates; controls 1 of 9), variant GFELVSYGIS / VIYSDGRRTFYGDSVK / GNAAGTFDS.
Result nd (0 of 3 replicates; controls 0 of 9), variant GFTLTSYGIS / VIYSAGRRTFYGDSVK / GRAAGTFDS.
Result nd (0 of 3 replicates; controls 1 of 9), variant GFTLNSYGIS / VIYQDGRRTFYGDSVK / GRAAGTMDS.
Result nd (0 of 3 replicates; controls 2 of 9), variant GFTLNSYPIS / VIYSDGRRTFYGVSVK / GRAAGTNDS.
Result nd (0 of 3 replicates; controls 1 of 9), variant GFTYNSYGIS / VIYSDGRRTFAGDSDK / GRAAGTFDS.
Result nd (0 of 3 replicates; controls 0 of 9), variant GFTLNSNGIS / VIYSMGRRTFYGDSVK / GRAMGTFDS.
Result nd (0 of 3 replicates; controls 2 of 9), variant GFTLNSYGIS / VHYSDGRRTFYGDSVE / NRAAGTFDS.
Result 6.6 µM (1 of 3 replicates; controls 2 of 9), variant GFRLNSYAIS / VIYSDGRRTFYGDSVK / GRAAGYFDS.

The last 5 entries again:

{"CDR-H1": "GFTLNSYPIS", "CDR-H2": "VIYSDGRRTFYGVSVK", "CDR-H3": "GRAAGTNDS", "Kd": "nd", "seen in": "0 of 3", "signal with controls": "2 of 9"}
{"CDR-H1": "GFTYNSYGIS", "CDR-H2": "VIYSDGRRTFAGDSDK", "CDR-H3": "GRAAGTFDS", "Kd": "nd", "seen in": "0 of 3", "signal with controls": "1 of 9"}
{"CDR-H1": "GFTLNSNGIS", "CDR-H2": "VIYSMGRRTFYGDSVK", "CDR-H3": "GRAMGTFDS", "Kd": "nd", "seen in": "0 of 3", "signal with controls": "0 of 9"}
{"CDR-H1": "GFTLNSYGIS", "CDR-H2": "VHYSDGRRTFYGDSVE", "CDR-H3": "NRAAGTFDS", "Kd": "nd", "seen in": "0 of 3", "signal with controls": "2 of 9"}
{"CDR-H1": "GFRLNSYAIS", "CDR-H2": "VIYSDGRRTFYGDSVK", "CDR-H3": "GRAAGYFDS", "Kd": "6.6 µM", "seen in": "1 of 3", "signal with controls": "2 of 9"}